Results from US20170210787A1 (Janssen / Centocor, published 2017).

Experiments:
tau 186-253 [1] = molecular target: T1, tau 186-253 (human, biotinylated); experiment: peptide ELISA, 1 ug/mL
T1 peptide: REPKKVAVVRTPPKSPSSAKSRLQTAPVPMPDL

tau 186-253 [2] = molecular target: T1, tau 186-253; experiment: ELISA on biotinylated peptide captured on streptavidin plate, IgG titrated [g]

OD450 (tau 186-253 [1]): > 1.5 od | EC50 (read off the curve) (tau 186-253 [2]): ~0.02 µg/mL
B1: CBTAU-24.1 (antibody, V domains shown)
VH: QVQLVQSGAEVKKPGASVKVSCTASGYTFTGYYLHWVRQAPGQGLEWMGWVNPRSGGTSYPPKFQGRVTMTRDTSINTAYMDLTWLTSDDTAVYYCAVGRIPDVTAFDIWGQGTPVTVSS
VL: DIQMTQSPDSLAVSLGERATINCKSSESLLYDSNNKNYLAWYQQKPGQPPKLLIYWASTRESGVPDRFSGSGSETDFTLTISSLQAEDVAVYHCQQYFSTPWTFGQGTKLEIK
